According to PubChem BioAssay AID1424 (The Scripps Research Institute Molecular Screening Center, 2008):
The entries are a selection whose mix differs from that of the whole data set. The source made the active and inactive calls.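 How the source made its calls: active means activation above its plate's cutoff, the mean activation of test wells on that plate plus 3 SD (cut at about 19% in these data); inactive means the rest.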

system: transient receptor potential cation channel N1 (TRPN1/NompC), Danio rerio; assay: zebrafish TRPN1 channel agonists, primary screen, cell-based, HEK293, calcium fluorescence (AID 1424); settings: HEK293 zebrafish TRPN1-YFP, Fluo-8 calcium fluorescence; at 3 µM; hits give high values; 100% = response to 87 µM carbachol;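 further: 0% = DMSO alone and 100% = 87 µM carbachol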
In short: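 Material: zebrafish TRPN1-YFP in HEK293 cells; Doses: single test compound dose, 3 µM nominal, 0.3% DMSO; Timing: dye loading 1 h at 37 °C, then 30 min room temperature; Technique: intracellular calcium fluorescence with Fluo-8; Benchmarks: high carbachol 87 µM, low DMSO alone.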

SMILES | activation
CCC(C)N(CC(C)C)C(=S)SC(NC(C)=O)C(Cl)(Cl)Cl (stereo not drawn) | inactive: 0.52%
CCOC(=O)c1ccc(NC(=O)C(C)(CCl)SC)cc1 (stereo not drawn) | inactive: 0.06%
O=C(COc1ccccc1)OC1CN2CCC1CC2 (stereo not drawn) | inactive: 1.01%
COP1(=S)c2c(C)nn(CCC#N)c2N=C(c2ccc(F)cc2)N1C (stereo not drawn) | inactive: -0.19%
O=P(Nc1ccccn1)(c1cccc2ccccc12)c1cccc2ccccc12 | inactive: 1.12%
Cc1cc(SC(NC=O)C(Cl)(Cl)Cl)ncn1 (stereo not drawn) | inactive: 0.17%
O=[N+]([O-])c1ccc(Nc2ccc(Oc3ccc([N+](=O)[O-])cc3[N+](=O)[O-])cc2)c([N+](=O)[O-])c1 | inactive: 0.45%
CCOC(=O)Nc1cccc([As](=O)(O)O)c1 | inactive: -1.41%
Cc1cc(SC(NC(=O)c2ccccc2)C(Cl)(Cl)Cl)nc(C(C)C)n1 (stereo not drawn) | inactive: 1.22%
CCOC(=O)Nc1ccc([As](=O)(O)O)c(O)c1 | inactive: -0.95%
CCN(CC)C(=S)SC(NC=O)C(Cl)(Cl)Cl (stereo not drawn) | inactive: 0.12%
CC(C)NC(=O)NP(=O)(Oc1ccccc1)Oc1ccccc1 | inactive: 0.13%
O=[N+]([O-])c1cc([N+](=O)[O-])c(-c2ccn[nH]2)s1 | inactive: 0.44%
ClCCSc1nnc(-c2cccnc2)o1 | inactive: 1.1%
CC(C)c1ccc(OP(=O)(Nc2ccccn2)Oc2ccccc2F)cc1 (stereo not drawn) | inactive: 0.36%
Cc1ccc(OP(=O)(Nc2ccc([N+](=O)[O-])cn2)Oc2ccc(C)cc2)cc1 | inactive: 0.49%
Cc1ccc2nc3c(c(C)c2c1)CC(C(Cl)Cl)S3 (stereo not drawn) | inactive: -3.48%
C[As](=O)(O)c1cccc(C(=O)O)c1 | inactive: 0.07%
O=[As](O)(c1ccc(O)cc1)c1ccccc1O | inactive: 1.1%
COc1ccc(N/C(=N/P(=O)(N2CCOCC2)N2CCOCC2)N2CCOCC2)cc1 | inactive: 0.2%
COc1ccc2nc(NP(=O)(c3ccccc3)c3ccccc3)sc2c1 | inactive: -2.34%
COc1cc(I)ccc1[As](=O)(O)O | inactive: 0.25%
Cc1c2c(nc3ccccc13)SC(C(Cl)Cl)C2 (stereo not drawn) | inactive: -0.83%
O=C(OC1CN2CCC1CC2)C12CC3CC(CC(C3)C1)C2 (stereo not drawn) | inactive: 0.34%
Cc1cc(=O)[nH]c(N[N+](=O)[O-])n1 | inactive: 0.21%
COc1cc(C2NCCC3(OCCO3)C2(C)C)cc(OC)c1OC (stereo not drawn) | inactive: -0.74%
CCOP(=O)(Nc1cccc2ccccc12)OCC | inactive: 0.4%
Nc1cccc2c([As](=O)(O)O)cccc12 | inactive: 0.95%
